## AlphaSeq binding of Ab-14 light chain variants to a spike HR2 peptide

Data: MIT Lincoln Laboratory AlphaSeq set, Engelhart et al. 2022, doi:10.1038/s41597-022-01779-4, as distributed in FLAb.

Antigen: PDVDLGDISGINAS, a 14-residue peptide of the SARS-CoV-2 spike HR2 region.

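The starting antibody came from a phage panning campaign against this peptide. Library AAYL50 holds single substitutions and randomly drawn double and triple substitutions in the CDRs. The scFvs were displayed on barcoded MATa yeast, the peptide on MATalpha yeast. After mating in shaken culture at 30 °C for 16 h, diploids were selected and their barcode pairs sequenced. Scores were corrected for input abundance and mapped to Kd with protein pairs of known affinity run in the same pool. Each pool was mated in three replicate cultures.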

Each scFv is VH, three GGGGS repeats, VL, as in the parent Ab-14, and differs from it in the CDRs of the light chain only.
VH: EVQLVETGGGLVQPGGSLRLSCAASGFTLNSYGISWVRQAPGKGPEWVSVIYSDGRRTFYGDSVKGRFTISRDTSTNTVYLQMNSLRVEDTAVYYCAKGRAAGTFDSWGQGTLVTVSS
VL: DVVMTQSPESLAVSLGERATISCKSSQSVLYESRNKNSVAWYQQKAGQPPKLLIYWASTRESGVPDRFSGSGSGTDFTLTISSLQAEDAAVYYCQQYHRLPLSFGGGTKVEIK

The parent's light chain CDRs are KSSQSVLYESRNKNSVA, WASTRES, QQYHRLPLS; each variant's own CDRs replace them letter for letter. Numbers give log10(Kd / nM), so 0 is 1 nM and 3 is 1 µM. Smaller is tighter. "nd" marks a missing value. The strain was present, yet no cells mated with the target were sequenced in that replicate, which points to weak or no binding.

CDR-L1,CDR-L2,CDR-L3,log10 Kd (nM) by replicate,control signals
GSSSSVLYESRNKNSVA,WASTRKS,QQYHRLPLS,3.24 2.84 nd,3/9 (3.97)
KSSFSVLYESRNFNSVA,WASTRES,QQYHRLPLI,1.94 2.49 2.08,0/9
KSSQSVLAESRNKNSQA,WAMTRES,QQYHRLPLS,4.16 nd 5.39,3/9 (4.57)
KSSQSVLYESRNKNWVA,WASTKES,QQCHRLPLS,nd nd nd,0/9
KSSQSVLYERRNKNSVA,WAHTRES,QQYHRLPLS,3.04 3.05 nd,2/9 (3.53)
KSSQSVLYESRRKNSVA,WASNCES,QQYHRLPLS,5.08 nd nd,1/9 (3.72)
KSYQSVWYESRNKNSVA,WASTRES,QQYTRLPLS,2.39 2.63 2.97,0/9
KWSQSVLYESRNKNSDA,WASTREP,QQYHRLPLS,5.89 nd 4.21,1/9 (3.72)
KSSQSVLFEDRNKNSVA,WASTRES,TQYHRLPLS,nd 3.50 nd,3/9 (3.78)
KSSQSVLYIQRNKNSVA,WASTRES,QQYDRLPLS,2.35 2.39 2.80,3/9 (5.26)
KSSQSVLYESRNKLSVA,WASTRES,QFYHRLPNS,nd nd nd,3/9 (4.07)
KSSQEVLYESRNKASVA,WAKTRES,QQYHRLPLS,2.10 2.16 2.47,0/9
LSSQSVLYWSRNFNSVA,WASTRES,QQYHRLPLS,6.02 5.25 nd,3/9 (4.90)
KSSYSVLYESRNKNSVA,WASTRNS,QIYHRLPLS,1.71 1.69 2.27,1/9 (4.74)
KSSQSVLYESRNKNSWA,WASTRES,QQEHRLPMS,nd 2.64 nd,3/9 (4.21)
KSSQSVLYESRNKNSVA,WQSTRES,QQYKRLGLS,nd nd nd,0/9
KSSQSVLYWSRNKNGVA,WASTRES,QQYHNLPLS,nd nd nd,0/9
KSSQSVLYESRNKNSVA,WTSTRES,QQDHPLPLS,nd nd nd,0/9
KSTQSVRYESRNKNSVP,WASTRES,QQYHRLPLS,nd nd nd,1/9 (4.12)
KCSPSVLYESRNKNSVA,WASTRHS,QQYHRLPLS,0.08 0.36 0.37,0/9
KSSQSVLYESRNKNNVA,WARTRES,QQYHRLPLS,1.16 1.46 1.35,2/9 (4.47)
ASSQSVLYESRNKNSVN,WASTRES,QAYHRLPLS,4.75 nd nd,3/9 (4.59)
KSSQSVLYESRNKNSVH,WASTRES,QQYHRLPEG,nd 5.22 nd,2/9 (4.00)
KSSQSVLYESRNKNSVA,WASTRES,RQYGRLPLS,1.53 1.42 1.64,3/9 (4.28)
KSSQSVLYESDNKNSVV,WASTRES,QQYHRLPKS,nd nd 5.59,2/9 (4.29)
KSSQSVLYMSRNKNSVA,MASQRES,QQYHRLPLS,0.72 0.78 0.77,3/9 (4.21)
KSSQSVCYESRNKLSVA,WASTRNS,QQYHRLPLS,2.31 2.64 2.32,0/9
KSSQSVNYESRNKNSMK,WASTRES,QQYHRLPLS,4.29 nd nd,6/9 (4.59)
KSSQSCLYESRNKNSVA,WASDRES,QTYHRLPLS,nd nd 4.24,1/9 (3.25)
KSSQSVLYESRNKNSVA,LASTRNM,QQYHRLPLS,0.83 nd 1.09,0/9
KSSQSVLYWSRNKISVA,WASTRES,QQYHRTPLS,nd nd nd,0/9
KSSQSVLYESRQKNSQA,WASTRES,RQYHRLPLS,nd nd nd,6/9 (3.89)
ISSQSVLWESRNKNSVA,WASTRES,QQYHRLPLS,1.47 1.42 1.71,2/9 (3.93)
KSSQSVLYVSRNKNSVA,WASTRES,QPYHRDPLS,nd nd 5.35,3/9 (4.24)
KSSQSVLAENRNKNSVA,WASTRES,QTYHRLPLS,1.26 1.42 1.42,8/9 (4.24)
KSSQSVKYESRVKNSVA,WAITRES,QQYHRLPLS,nd nd nd,4/9 (3.80)
KSSQSVLYESRNKWSVA,WASTRES,QQYHRLPLV,1.61 1.74 1.97,1/9 (3.72)
KSSDSVLYMSRNKNSVA,WASTRES,QQAHRLPLS,3.67 2.95 4.28,5/9 (4.09)
KSSQSVLYFSRNKNSVA,WASTRES,QQYHRLWLS,2.31 2.23 2.06,3/9 (4.44)
KSSQSVLEESRNKNSVA,WVSTRES,QQYHRLPLS,nd nd nd,0/9
KSSQSVLYESRNKNSDA,WASTRES,PQYHRLPSS,nd nd 3.64,2/9 (4.37)
KSSQSVLYESRNKNSVA,WASRRES,QQRHRLLLS,3.61 3.67 nd,2/9 (3.39)
SSSQSVLYESRNANEVA,WASTRES,QQYHRLPLS,2.52 2.28 3.33,2/9 (4.56)
KSSKSVLYESRNKNSVA,WASTRES,QQYHRSPLS,2.17 3.23 3.55,2/9 (3.27)
SSSQSVLYESRNKNSVA,WASTRTS,QQYHRLPVS,1.70 1.79 1.89,3/9 (3.94)
KSSQSVLYESRNKNSVA,WDSTRES,QQYHRLPTW,1.12 1.04 1.21,6/9 (4.27)
KSSQSVWYESRNKVSVA,YASTRES,QQYHRLPLS,1.33 1.71 1.40,2/9 (3.11)
KSSQSVLYESRNKNSVA,AASTRTS,QQYHRTPLS,nd 3.72 nd,1/9 (2.79)
KSSQSVLYESRNKNSHA,WASERES,QRYHRLPLS,4.48 3.18 6.27,3/9 (4.52)
KSSQSVLYESRNKNSVA,WAQTRES,QQYHRFPPS,2.25 2.50 2.92,5/9 (4.12)
KSSQSVLYESRNKNSVA,WRSKRES,QHYHRLPLS,nd 3.11 4.80,3/9 (4.13)
KSSQMVLYESRNKNYVA,WASTRES,QQYHRLPLC,nd nd nd,0/9

A selection of 8 entries from above:

CDR-L1,CDR-L2,CDR-L3,log10 Kd (nM) by replicate,control signals
KSSQSVLYESRNKNSVA,WASRRES,QQRHRLLLS,3.61 3.67 nd,2/9 (3.39)
KSSQSVLYESRNKLSVA,WASTRES,QFYHRLPNS,nd nd nd,3/9 (4.07)
KSSFSVLYESRNFNSVA,WASTRES,QQYHRLPLI,1.94 2.49 2.08,0/9
KSSQSVLYESRQKNSQA,WASTRES,RQYHRLPLS,nd nd nd,6/9 (3.89)
KSSQSVWYESRNKVSVA,YASTRES,QQYHRLPLS,1.33 1.71 1.40,2/9 (3.11)
KSSQSVLYESRNKNWVA,WASTKES,QQCHRLPLS,nd nd nd,0/9
KSSQSVLYERRNKNSVA,WAHTRES,QQYHRLPLS,3.04 3.05 nd,2/9 (3.53)
KSSDSVLYMSRNKNSVA,WASTRES,QQAHRLPLS,3.67 2.95 4.28,5/9 (4.09)

Nonspecific signal, from three strains lacking the peptide, appeared in 18% of pairings of library AAYL50, centred on 4.19 (5% of these signals below 2.99); values are not corrected for it. The control count says in how many pairings with the empty strains this scFv gave a signal, with their mean in brackets.